Binding of CDR-mutated scFvs to a peptide of the spike HR2 region

The measurements come from Engelhart et al. 2022 (doi:10.1038/s41597-022-01779-4) through the FLAb antibody collection.

Target: peptide PDVDLGDISGINAS, taken from heptad repeat 2 (HR2) of SARS-CoV-2 spike.

Each scFv is VL, the linker GGGGSGGGGSGGGGS, VH, as in the parent Ab-91, and differs from it in the CDRs of the heavy chain only.
VL: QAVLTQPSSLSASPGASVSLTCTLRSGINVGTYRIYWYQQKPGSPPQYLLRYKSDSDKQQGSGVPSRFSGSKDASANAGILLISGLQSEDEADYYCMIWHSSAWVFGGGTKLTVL
VH: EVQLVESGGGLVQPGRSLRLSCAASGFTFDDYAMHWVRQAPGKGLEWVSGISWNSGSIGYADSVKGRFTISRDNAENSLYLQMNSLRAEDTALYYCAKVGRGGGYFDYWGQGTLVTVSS

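Phage display of a naive human antibody library on the peptide gave the parent. Variants in AAYL51 differ from the parent at up to three CDR positions; double and triple changes were sampled at random. Affinity was read by AlphaSeq, a pooled yeast mating assay with surface-displayed partners. Pairs that bind mate more often; barcode pairs of the diploids are counted by sequencing. Each replicate has its own calibration line, from reference interactions of the BCL2 family. Mating was done three times.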

Changes read parent residue, position, new residue, counted from the first residue of the VH shown. The read-out is the apparent dissociation constant on a log10 scale (nM): the lower, the stronger. "ND" means that the variant was in the library but no mating with the target was seen in that replicate; the authors take this as a sign of poor binding, and no number exists. As a blank, each scFv also met three strains without target: over library AAYL51, 21% of these pairings were detected, typically at 4.54 and seldom below 3.26. For each scFv, signals with the empty controls are counted beside the result, with their mean in brackets.

changes	replicates, log10 nM	empty controls
Y32E I58C A61L	ND / ND / ND	0 of 9
S52I W53K G103S	4.21 / 4.93 / 5.31	5 of 9 (4.95)
F106P	4.08 / 5.50 / ND	1 of 9 (3.95)
Y32H G56E K65D	5.25 / 5.55 / ND	3 of 9 (4.28)
G59E V64M V99S	3.53 / 3.34 / 3.10	5 of 9 (4.75)
N54V K65L G102T	ND / ND / ND	1 of 9 (4.02)
M34I H35M F106S	5.01 / ND / ND	6 of 9 (4.80)
S63V V64A G102I	2.86 / 3.52 / 2.77	4 of 9 (4.40)
Y32P M34T D107N	5.32 / 6.77 / ND	6 of 9 (5.71)
F29H A33T G50R	5.27 / 5.44 / ND	6 of 9 (4.99)
A61P R101H Y108D	ND / ND / ND	0 of 9
T28F V99G Y108L	ND / ND / ND	1 of 9 (4.79)
G26E H35V	ND / 3.59 / 3.10	3 of 9 (4.19)
G26F V64P G104A	ND / ND / ND	0 of 9
F27D D30S Y105I	3.96 / ND / 4.84	3 of 9 (4.78)
A33M N54R I58P	ND / ND / ND	2 of 9 (3.67)
G26Y F27N G103L	ND / ND / ND	1 of 9 (4.44)
G26L N54F A61Y	5.66 / 4.52 / ND	2 of 9 (5.37)
H35E G50H G104Y	ND / 2.95 / ND	0 of 9
I58C G59Y G102E	ND / ND / ND	7 of 9 (3.59)
W53L G104I Y108D	4.47 / 3.89 / 4.43	3 of 9 (3.98)
Y32S Y60I F106L	ND / ND / ND	0 of 9
G26F H35N S57F	ND / ND / ND	1 of 9 (3.51)
F27G D30N R101V	1.25 / 1.04 / 0.56	1 of 9 (4.09)
T28H D62W	2.20 / 2.42 / 2.11	0 of 9
Y32P	ND / ND / ND	0 of 9
N54P Y60V D62S	4.07 / ND / 3.74	3 of 9 (4.69)
M34W W53A R101D	ND / ND / ND	1 of 9 (4.53)
S57N F106E	ND / ND / ND	1 of 9 (4.31)
A33N K65G R101N	4.70 / ND / 5.02	1 of 9 (5.07)
G59Y D62M G103R	ND / ND / ND	0 of 9
Y32W G100R Y105S	ND / 6.18 / ND	1 of 9 (5.88)
D30Q W53F R101Q	0.14 / 0.18 / -0.83	4 of 9 (3.70)
D31M N54L Y108S	ND / ND / 2.21	0 of 9
S52G A61Q V64G	ND / ND / 3.99	0 of 9
D30N H35A A61K	2.84 / 3.09 / 2.95	3 of 9 (4.30)
S52C V99R Y108V	ND / 5.54 / ND	0 of 9
G56V A61L G103H	ND / 4.83 / ND	1 of 9 (3.51)

Repeated from above, the 3 best binders with a signal in all replicates:

| changes | replicates, log10 nM | empty controls |
|---|---|---|
| D30Q W53F R101Q | 0.14 / 0.18 / -0.83 | 4 of 9 (3.70) |
| F27G D30N R101V | 1.25 / 1.04 / 0.56 | 1 of 9 (4.09) |
| T28H D62W | 2.20 / 2.42 / 2.11 | 0 of 9 |